Experimental data published in PMC4515095, “Structures of the Apo and FAD-Bound Forms of 2-Hydroxybiphenyl 3-monooxygenase (HbpA) Locate Activity Hotspots Identified by Using Directed Evolution” (Chembiochem, 2015).

Test system: Oc1ccccc1-c1ccccc1
Assay: purified protein
Details: co-substrate NADH, air-saturated buffer

Substance: HbpA; 2-hydroxybiphenyl 3-monooxygenase (Pseudomonas nitroreducens; D117A)
- Km: 5.0 ± 0.8 µM

Substance: HbpA; 2-hydroxybiphenyl 3-monooxygenase (Pseudomonas nitroreducens; H48A)
- Km (NADH oxidation read-out, hydroxylation is uncoupled): 3.1 ± 0.4 µM

Substance: HbpA; 2-hydroxybiphenyl 3-monooxygenase (Pseudomonas nitroreducens; R242A)
- Km (NADH oxidation read-out): 4.8 ± 1.6 µM
